# An excerpt weighted towards active compounds, which were near 2.8% of everything screened.
# PGC1a acetyl inh – PGC1a acetylation modulation, inhibitor mode; U2OS PGC1a acetylation, AlphaScreen anti-acetyl-lysine; with virally co-expressed GCN5 acetyltransferase; inhibition, % at 15.6 µM; 0.17% of 350,000 active;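 active = every replicate shows inhibition of at least 40%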
# Yeast UUG start – yeast start codon fidelity modulation; AID 602363; activity score, % at 18.7 µM; S. cerevisiae UUG-firefly luciferase reporter, luminescence/redox ratio; 0.13% of 350,000 active;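 active means replicate mean at a twofold rise or more, about +100% in these data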;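 further: firefly luciferase made from a UUG start codon reports start codon fidelity; reporter light over untreated wells divided by growth signal over untreated wells; some hits fall short of that in this replicate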
# C2C12 statin – suppression of simvastatin myotoxicity; C2C12 myotubes + simvastatin, ATP luminescence, 48 h; scaled: DMSO 0, geranylgeraniol control 100; rescue of ATP level, % at 7.49 µM; 0.78% of 330,000 active; AID 602340;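 active = mean ATP rescue above about 67%, or every replicate alone reaching that limit, limit read from the data, passing the limit was not always enough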;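 note: myotubes were challenged with 10 µM simvastatin during compound exposure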
# esBAF inh – blocks esBAF chromatin remodeling in mouse ES cells; Bmi1-luciferase knock-in reporter, 24 h; 100% = twice the neutral-well signal; reporter increase, % at 12.5 µM; 2% of 350,000 active; AID 602393; in the data active = activation above about 40%;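 note: a rise in the Bmi1 reporter signal indicates esBAF inhibition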
# PglD DTNB – blocks C. jejuni PglD acetyltransferase activity | purified PglD enzyme, DTNB colorimetric CoA detection | inhibition, % at 12.5 µM | 0.098% of 360,000 active | AID 602405; in the data active = inhibition above about 16%, passing the limit was not always enough
# E-sel inducer – induces E-selectin expression in human endothelial cells; HUVEC E-selectin immunofluorescence imaging; normalized: neutral wells 0, TNF-alpha wells 100; P16581; activation, % at 7.58 µM; 0.37% of 260,000 active; AID 686992;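 active = mean E-selectin-positive cell signal at least 10% of the positive control, reached in at least 60% of replicates, without over 20% cell loss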
#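 Test system: HUVEC; input: 3,000 HUVEC/well; measured by: immunofluorescence imaging; read-out: % PE-positive cells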
# Numbers stand for hits; 0 = inactive; - = not tested or not shown; ! = not active in a repeat.
SMILES,PGC1a acetyl inh,Yeast UUG start,C2C12 statin,esBAF inh,PglD DTNB,E-sel inducer
C(=NOCCc1ccccc1)c1ccccn1,0,0,0,95.2,0,0
C(=NOCCc1ccccc1)c1ccncc1,0,0,0,48.7,0,0
C[C@H]1CCCCO[C@@H](CN(C)C(=O)Nc2ccc3c(c2)OCO3)[C@@H](C)CN([C@@H](C)CO)C(=O)c2cc(NS(=O)(=O)c3cccs3)ccc2O1,0,0,83.9,0,0,0
Cc1noc(C)c1NC(=O)N(C)C[C@H]1Oc2ccc(NS(=O)(=O)c3cccs3)cc2C(=O)N([C@H](C)CO)C[C@@H]1C,0,0,0,0,0,255.2!
Cc1noc(C)c1NC(=O)N(C)C[C@@H]1Oc2ccc(NC(=O)c3ccncc3)cc2C(=O)N([C@H](C)CO)C[C@H]1C,0,0,0,0,0,353.8
C[C@@H]1CN([C@@H](C)CO)C(=O)c2cc(NS(=O)(=O)c3cccs3)ccc2O[C@H]1CN(C)C(=O)Nc1ccc2c(c1)OCO2,0,0,0,0,0,284.1
C[C@@H]1CN([C@@H](C)CO)C(=O)Cc2cc(NC(=O)Cn3cnnn3)ccc2O[C@@H]1CN(C)Cc1ccc2c(c1)OCO2,0,0,0,0,0,-
Cc1noc(C)c1NC(=O)N(C)C[C@@H]1Oc2ccc(NC(=O)Cn3cnnn3)cc2C(=O)N([C@@H](C)CO)C[C@@H]1C,0,0,0,0,0,102.7
CN(C)c1ccc(NC(=O)c2ccc(COc3cccc(Cl)c3)o2)cc1,0,0,0,74.4,0,-
O=S(=O)(NN=C1CCCCC1)c1ccccc1,0,0,115.0,0,0,0
O=S(=O)(NN=C1CCCCCCC1)c1ccccc1,0,0,0,0,0,-
CCCN(C)C[C@@H]1OCCCC[C@@H](C)Oc2ccc(NC(=O)NC(C)C)cc2C(=O)N([C@@H](C)CO)C[C@@H]1C,0,-,-,-,0,-
O=C(Nc1ccccc1F)c1cc2nc(C(F)F)cc(C(F)F)n2n1,0,0,0,58.4,0,-
O=C(Nc1ccccc1F)c1cnccn1,-,0,0,0,0,0
O=C(Nc1nnc(-c2ccccc2)s1)c1ccccc1F,0,0,0,69.5,0,-
O=C(Nc1nnc(-c2ccccc2Cl)s1)c1ccccc1F,0,0,0,51.3,0,0
O=C(Nc1nnc(Cc2ccccc2F)s1)c1ccccc1Cl,0,0,0,0,0,0
CC(C)(C)c1ccc(-c2nnc(NC(=O)c3ccccc3)s2)cc1,0,0,0,49.3,0,-
CCn1c(C(=O)OC)cc2c1ccn2-c1ccc(F)cc1,0,0,0,71.3,0,-
COC(=O)c1cc2c(ccn2-c2ccc(F)cc2)n1CC(=O)N1CCN(C(=O)c2ccco2)CC1,0,0,0,0,0,-
CO[C@H]1CN(C)C(=O)c2ccc(NS(C)(=O)=O)cc2OC[C@H](C)N(C(=O)C2CCCC2)C[C@H]1C,-,0,0,0,0,0
C[C@H]1CN([C@@H](C)CO)C(=O)c2cc(NC(=O)CCC(F)(F)F)ccc2O[C@@H]1CN(C)S(C)(=O)=O,0,0,0,0,0,0
CC1CCCCN1C(=O)CN(C)S(=O)(=O)c1cccc2nsnc12 (configuration not stated),41.6,0,0,0,0,-
CO[C@@H]1CN(C)C(=O)c2ccc(NC(=O)NC(C)C)cc2OC[C@@H](C)N(C(=O)NC(C)C)C[C@@H]1C,0,0,0,0,0,0
Cc1c(C(=O)N2CCOCC2)oc2ccc(S(=O)(=O)N3CCCC3)cc12,0,0,121.0,0,0,-
SMILES,PGC1a acetyl inh,Yeast UUG start,C2C12 statin,esBAF inh,PglD DTNB,E-sel inducer
Cc1ccc2oc(C(=O)N3CCCCCC3)c(C)c2c1,0,0,0,63.8,0,0
CCOC(=O)N1CCN(C(=O)c2oc3ccc(S(=O)(=O)N4CCCCCC4)cc3c2C)CC1,0,0,0,0,0,-
COc1ccc2oc(C(=O)OCC(=O)Nc3ccc(C)c(S(=O)(=O)N4CCOCC4)c3)c(C)c2c1,-,0,0,78.7,0,-
Cc1c(C(=O)N2CCCCC2)oc2ccc(Br)cc12,0,-,-,-,-,0
CCOC(=O)N1CCN(C(=O)c2oc3ccc(S(=O)(=O)N4CCOCC4)cc3c2C)CC1,0,0,95.4,0,0,-
CO[C@H]1CN(C)C(=O)c2ccc(NC(=O)c3ccno3)cc2OC[C@H](C)NC[C@@H]1C,0,-,0,0,0,0

# Screens deposited in PubChem by Broad Institute.
